# Values quoted from earlier work as cited in US11090322B2, “Anthracycline disulfide intermediates, antibody-drug conjugates and methods” (priority 2014, dated 2021).
# Test system: MMTV-HER2 Fo5 transgenic mammary tumors
# Details: allograft propagated from the Fo5 mmtv transgenic mouse; cited from earlier work
substance,measurement,value
"HERCEPTIN: humanized anti-HER2 antibody huMAb4D5-8, trastuzumab, tradename HERCEPTIN",response of Fo5 allograft to therapy,"does not respond to, or responds poorly to"
